Tests used:
BRD4-1 = BRD4-1 (Homo sapiens, UniProt O60885); test: Bromodomain binding affinity (tryptophan fluorescence binding assay); conditions: read-out: Binding Affinity, Kd BRD4-1; Table 2
BRD4-2 = BRD4-2 (Homo sapiens, UniProt O60885); test: as above; conditions: read-out: Binding Affinity, Kd BRD4-2; Table 2

Row | Kd (BRD4-1) [µM] | Kd (BRD4-2) [µM] | SMILES
1 | 4.8 | 10.2 | COc1cc(/N=N/c2ccc(S(=O)(=O)Nc3ccccn3)cc2)ccc1O
2 | 3.5 |  | Cc1cc(/N=N/c2ccc(S(=O)(=O)Nc3ccc(C(F)(F)F)cc3)cc2)cc(C)c1O
3 |  | 6.1 | O=S(=O)(Nc1ccccn1)c1ccc(/N=N/c2ccc(O)c3ccccc23)cc1
4 | 505 |  | CC(C)c1cc(/N=N/c2ccc(S(=O)(=O)Nc3ccccn3)cc2)cc(C(C)C)c1O

— US20140066410A1, “INHIBITORS OF BROMODOMAINS AS MODULATORS OF GENE EXPRESSION” (ICAHN SCHOOL OF MEDICINE AT MOUNT SINAI, priority 2011, published 2014)
